Data from patent publication US12209090B2, “3,6-disubstituted-2-pyridinaldoxime scaffolds” (dated 2025).

By UniProt entry, the sequences of proteins in these tests, tags left out. Where a name states a change or a piece, a line headed by the entry shows the natural chain unless it says otherwise.
UniProt P22303: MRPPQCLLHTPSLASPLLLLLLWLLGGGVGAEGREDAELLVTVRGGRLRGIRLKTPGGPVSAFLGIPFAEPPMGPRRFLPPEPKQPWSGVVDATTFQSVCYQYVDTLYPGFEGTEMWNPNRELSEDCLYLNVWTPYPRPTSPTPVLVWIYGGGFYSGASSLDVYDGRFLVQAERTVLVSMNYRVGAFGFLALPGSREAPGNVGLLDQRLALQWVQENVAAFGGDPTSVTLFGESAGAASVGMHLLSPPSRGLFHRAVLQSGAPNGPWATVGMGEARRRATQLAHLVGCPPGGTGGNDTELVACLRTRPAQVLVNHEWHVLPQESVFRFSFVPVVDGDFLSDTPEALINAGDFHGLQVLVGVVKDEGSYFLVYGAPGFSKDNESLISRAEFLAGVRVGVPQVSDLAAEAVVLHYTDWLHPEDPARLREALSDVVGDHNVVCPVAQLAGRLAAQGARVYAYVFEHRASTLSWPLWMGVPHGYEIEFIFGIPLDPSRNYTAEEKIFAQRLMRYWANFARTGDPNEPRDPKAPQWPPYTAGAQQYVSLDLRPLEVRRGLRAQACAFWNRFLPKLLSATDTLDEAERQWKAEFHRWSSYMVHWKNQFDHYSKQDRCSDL

How the values were obtained:
[1] = target: hAChE inhibited by paraoxon (Homo sapiens, UniProt P22303); experiment: Reactivation of paraoxon-inhibited hAChE by oximes
hAChE inhibited by tabun = hAChE inhibited by tabun (Homo sapiens, UniProt P22303); experiment: Reactivation of tabun-inhibited hAChE by oximes
hAChE inhibited by sarin = hAChE inhibited by sarin (Homo sapiens, UniProt P22303); experiment: Reactivation of sarin-inhibited hAChE by oximes
[2] = target: hAChE inhibited by O-ethyl S-[2-(diisopropylamino)ethyl] methylphosphonothioate (VX) (Homo sapiens, UniProt P22303); experiment: Reactivation of VX-inhibited hAChE by oximes

(2S,3S,4R,5R)-5-(6-amino-9H-purin-9-yl)-3,4-dihydroxy-N-(4-(6-(hydroxyimino) methyl)pyridin-2-yl)but-3-yn-1-yl)tetrahydrofuran-2-carboxamide
kr2 (second-order reactivation rate constant, kr/KD) ([1]; OP = Paraoxon): 6.4 mM⁻¹ min⁻¹
kr (maximal reactivation rate constant) ([1]; OP = Paraoxon, 37° C., phosphate buffer pH 7.4): 0.36 ± 0.16 min⁻¹
reactivation kinetics (kr) as compared to references 2-PAM and HI6 ([1]; Paraoxon, in words): higher reactivation kinetics
kr2 (second-order reactivation rate constant, kr/KD) (hAChE inhibited by tabun; OP = Tabun): 38 mM⁻¹ min⁻¹
kr (maximal reactivation rate constant) (hAChE inhibited by tabun; OP = Tabun, 37° C., phosphate buffer pH 7.4): 1.2 ± 0.07 min⁻¹
reactivation kinetics (kr) as compared to references 2-PAM and HI6 (hAChE inhibited by tabun; Tabun, in words): higher reactivation kinetics
kr2 (second-order reactivation rate constant, kr/KD) (hAChE inhibited by sarin; OP = Sarin): 10.9 mM⁻¹ min⁻¹
kr (maximal reactivation rate constant) (hAChE inhibited by sarin; OP = Sarin, 37° C., phosphate buffer pH 7.4): 1.2 ± 0.15 min⁻¹
reactivation kinetics (kr) as compared to references 2-PAM and HI6 (hAChE inhibited by sarin; Sarin, in words): higher reactivation kinetics
kr2 (second-order reactivation rate constant, kr/KD) ([2]; OP = VX): 6 mM⁻¹ min⁻¹
kr (maximal reactivation rate constant) ([2]; OP = VX, 37° C., phosphate buffer pH 7.4): 0.58 ± 0.07 min⁻¹
reactivation kinetics (kr) as compared to references 2-PAM and HI6 ([2]; VX, in words): higher reactivation kinetics
